Assay results from patent US20210261561A1, “BICYCLIC HETEROCYCLE DERIVATIVES HAVING SELECTIVE BACE1 INHIBITORY ACTIVITY” (SHIONOGI & CO., LTD., priority 2018, published 2021).

The chains behind the UniProt entries cited, without tags or fusion partners. Residues count along the entry.
UniProt P56817, 46-501 limits assumed: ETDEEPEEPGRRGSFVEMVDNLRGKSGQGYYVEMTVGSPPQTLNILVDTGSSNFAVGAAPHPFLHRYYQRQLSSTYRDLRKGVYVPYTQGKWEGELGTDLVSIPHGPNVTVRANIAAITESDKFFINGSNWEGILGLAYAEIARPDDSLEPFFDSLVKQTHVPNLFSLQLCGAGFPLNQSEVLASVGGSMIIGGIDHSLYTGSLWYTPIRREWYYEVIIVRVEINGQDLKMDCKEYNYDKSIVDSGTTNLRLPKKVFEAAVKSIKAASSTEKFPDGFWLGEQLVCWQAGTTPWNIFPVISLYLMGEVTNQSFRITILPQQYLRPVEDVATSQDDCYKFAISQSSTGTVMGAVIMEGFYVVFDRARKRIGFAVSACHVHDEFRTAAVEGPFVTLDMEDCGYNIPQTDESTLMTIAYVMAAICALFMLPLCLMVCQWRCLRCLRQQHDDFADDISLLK
UniProt Q9Y5Z0, 63-518 limits assumed: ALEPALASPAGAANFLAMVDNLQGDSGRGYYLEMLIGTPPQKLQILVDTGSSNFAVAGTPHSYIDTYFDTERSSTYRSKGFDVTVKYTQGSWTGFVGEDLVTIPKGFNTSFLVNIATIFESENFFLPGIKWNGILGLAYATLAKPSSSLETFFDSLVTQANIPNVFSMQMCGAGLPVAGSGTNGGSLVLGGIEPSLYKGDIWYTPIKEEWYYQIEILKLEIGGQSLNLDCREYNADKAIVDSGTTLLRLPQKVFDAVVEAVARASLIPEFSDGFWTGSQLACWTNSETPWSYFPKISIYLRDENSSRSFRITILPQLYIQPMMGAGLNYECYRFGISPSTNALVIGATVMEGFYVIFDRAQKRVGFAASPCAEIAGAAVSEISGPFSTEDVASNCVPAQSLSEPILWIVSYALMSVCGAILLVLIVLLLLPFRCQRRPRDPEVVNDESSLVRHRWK
UniProt Q9JL18, 63-514 limits assumed: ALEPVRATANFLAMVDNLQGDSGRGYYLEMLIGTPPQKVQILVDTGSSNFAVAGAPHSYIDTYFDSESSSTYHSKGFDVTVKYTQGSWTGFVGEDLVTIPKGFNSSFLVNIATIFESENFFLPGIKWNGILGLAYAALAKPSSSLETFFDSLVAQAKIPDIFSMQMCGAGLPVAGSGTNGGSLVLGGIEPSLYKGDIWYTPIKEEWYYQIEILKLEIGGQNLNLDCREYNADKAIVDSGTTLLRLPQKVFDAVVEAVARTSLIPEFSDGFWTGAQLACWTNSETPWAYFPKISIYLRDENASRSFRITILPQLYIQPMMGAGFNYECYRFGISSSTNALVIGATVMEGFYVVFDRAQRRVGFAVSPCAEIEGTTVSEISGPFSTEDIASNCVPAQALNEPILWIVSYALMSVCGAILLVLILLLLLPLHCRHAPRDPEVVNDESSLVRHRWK

Assays:
BACE1 [1] = target: T1, BACE1 (Homo sapiens, UniProt P56817); test: BACE1 biochemical FRET based assay (Test Example 2-1); details: for selectivity: BACE2 IC50 over BACE1 IC50 (FRET); for IC50: read-out: BACE1 IC50, FRET, 0.04 μg/mL BACE1, 450 minutes, Citrate buffer pH 5.0
Text: (§1) This assay is a Fluorescence Resonance Energy Transfer Assay (FRET) based assay. The substrate for this assay is an APP derived 13 amino acids peptide that contains the ‘Swedish’ Lys-Met/Asn-Leu mutation of the amyloid precursor protein (APP) beta-site secretase cleavage site. This substrate also contains two fluorophores: (7-methoxycoumarin-4-yl) acetic acid (Mca) is a fluorescent donor with excitation wavelength at 320 nm and emission at 405 nm and 2,4-dinitrophenol (Dnp) is a proprietary quencher acceptor. […] Upon cleavage by BACE1, the fluorophore Mca is separated from the quenching group Dnp, restoring the full fluorescence yield of the donor. The increase in fluorescence is linearly related to the rate of proteolysis.
(§2) Briefly in a 384-well format recombinant BACE1 protein in a final concentration of 0.04 μg/mL is incubated for 450 minutes at room temperature with […] substrate in incubation buffer (final concentrations: 33.3 mM Citrate buffer pH 5.0, 0.033% PEG, 3% DMSO) in the absence or presence of compound. Next the amount of proteolysis is directly measured by fluorescence measurement at T=0′-120′ and T=450′ (excitation at 320 nm and emission at 405 nm). Results are expressed in RFU (Relative Fluorescence Units), as difference between T450 and Tx (Tx is chosen depending on the reaction speed between 0 and 120 minutes.).
A best-fit curve is fitted by a minimum sum of squares method to the plot of % Controlmin versus compound concentration. From this an IC50 value (inhibitory concentration causing 50% inhibition of activity) can be obtained.

BACE2 [2] = target: T2, BACE2 (Homo sapiens, UniProt Q9Y5Z0); test: BACE2 biochemical FRET based assay (Test Example 2-1 (2)); details: read-out: BACE2 IC50, 0.4 μg/mL BACE2, 450 minutes, Citrate buffer pH 5.0
Text: This assay is a Fluorescence Resonance Energy Transfer Assay (FRET) based assay. The substrate for this assay contains the ‘Swedish’ Lys-Met/Asn-Leu mutation of the amyloid precursor protein (APP) beta-secretase cleavage site. This substrate also contains two fluorophores: (7-methoxycoumarin-4-yl) acetic acid (Mca) is a fluorescent donor with excitation wavelength at 320 nm and emission at 405 nm and 2,4-dinitrophenol (Dnp) is a proprietary quencher acceptor. […] Upon cleavage by the beta-secretase, the fluorophore Mca is separated from the quenching group Dnp, restoring the full fluorescence yield of the donor. The increase in fluorescence is linearly related to the rate of proteolysis. Briefly in a 384-well format recombinant BACE2 protein in a final concentration of 0.4 μg/mL was incubated for 450 minutes at room temperature with 10 μM substrate in incubation buffer (final concentrations: 33.3 mM Citrate buffer pH 5.0, 0.033% PEG, 2% DMSO) in the absence or presence of compound. Next the amount of proteolysis was directly measured by fluorescence measurement at T=0 and T=450 (excitation at 320 nm and emission at 405 nm). Results were expressed in RFU (Relative Fluorescence Units), as difference between T450 and TO.
A best-fit curve was fitted by a minimum sum of squares method to the plot of % Controlmin versus compound concentration. […]

BACE1 [3] = target: T1, BACE1; test: BACE1 biochemical competitive radioligand binding assay (Test Example 1-1/1-2); details: read-out: Binding BACE1 Ki; competition with tritiated non-selective BACE1/BACE2 inhibitor, BACE1-containing HEK 293 derived membrane, pH 6.2
Protocol: (§3) To explore the BACE1 versus BACE2 enzyme selectivity, the binding affinity (Ki) to the respective purified enzymes was determined in a competitive radioligand binding assay, i.e. in competition with a tritiated non-selective BACE1/BACE2 inhibitor.
(§4) Briefly in test tubes, compounds of interest were combined with the radioligand and the BACE1 or BACE2-containing HEK 293 derived membrane. The competitive binding reaction was performed at pH 6.2 and incubated at room temperature until the equilibrium was reached. Afterwards free radioligand was separated from bound radioligand by filtration with a Brandell 96 harvester. The filter was washed 4 times with washing buffer and the filter sheets were punched into scintillation vials. Ultima Gold scintillation cocktail was added and samples were shaken. The day after, the vials were counted in a Tricarb scintillation counter to obtain the disintegrations per minute (dpm) of the bound radioligand.
(§5) Calculating the % CTL=(sample/HC)*100, with HC being the high control, i.e. total binding of radioligand, allowed to fit curves through the data points of the different doses of test compound. The pIC50 or IC50 was calculated and could be converted to Ki by the formula Ki=IC50/(1+([RL]/Kd)), with [RL] being the used concentration of radioligand and Kd the determinated dissociation constant of the radioligand-membrane complex. […]

BACE1 [4] = target: T1, BACE1; test: BACE1 biochemical FRET based assay - Method 1 (Test Example 2-2); details: 0.04 μg/mL BACE1, 450 minutes, Citrate buffer pH 5.0
Text: as §1
as §2, with “minutes.). […]” for “minutes.).”

BACE1 [5] = target: T1, BACE1; test: BACE1 cellular αLisa assay in SKNBE2 cells, Abeta 1-42 (Test Example 2-3); details: SKNBE2 cells expressing hAPP695, 18 hours incubation
Protocol: In two αLisa assays the levels of Abeta 1-42 or Abeta total produced and secreted into the medium of human neuroblastoma SKNBE2 cells are quantified. The assays are based on the human neuroblastoma SKNBE2 expressing the wild type Amyloid Precursor Protein (hAPP695). The compounds are diluted and added to these cells, incubated for 18 hours and then measurements of Abeta 1-42 or Abeta total are taken. Abeta 1-42 or Abeta total are measured by sandwich αLisa using biotinylated antibody AbN/25 attached to streptavidin coated donor beads and antibody cAb42/26 or Ab 4G8 conjugated acceptor beads for the detection of Abeta 1-42 or Abeta total respectively. In the presence of Abeta 1-42 or Abeta total, the beads come into close proximity. The excitation of the donor beads provokes the release of singlet oxygen molecules that trigger a cascade of energy transfer in the acceptor beads, resulting in light emission. Light emission is measured after 1 h incubation (excitation at […] and emission at 615 nm).
(§6) Data are analysed using Screener (Registered trademark) (Genedata, Switzerland). Data were normalized and % inhibition=100−[(sample−LC)/(HC−LC))*100], was plotted versus the log concentration of the test compound. Curves were analysed using non-linear regression analysis and IC50 values (inhibitory concentration causing 50% inhibition of activity) were derived from individual curves. […]

BACE2 [6] = target: T2, BACE2; test: BACE2 biochemical competitive radioligand binding assay (Test Example 1-1/1-2); details: read-out: Binding BACE2 Ki; competition with tritiated non-selective BACE1/BACE2 inhibitor, BACE2-containing HEK 293 derived membrane, pH 6.2
Protocol: as §3, §4, §5

BACE2 [7] = target: BACE2 (Mus musculus, UniProt Q9JL18); test: BACE2 cellular assay in MIN6 cells, secreted TMEM27 (Test Example 2-5); details: 24 hours incubation, secreted TMEM27 by MSD
Protocol: Cellular BACE2 activity was measured by determination of the level of secreted TMEM27 into the medium of MIN6 cells using an MSD platform. The assay is based on the mouse insulinoma MIN6 cells expressing Flag-V5-TMEM27-HA. When BACE2 cleaves TMEM27 the N-terminal part of TMEM27 with the V5-Flag tag will be shed into the medium, and the amount of this cleaved product is measured with the MSD assay.
Briefly in a 96-well format the cells are incubated for 24 hours in the presence of the compound followed by the measurement of secreted TMEM27 in the medium via MSD using FLAG-L5 coating antibody and a V5 detection antibody. When TMEM27 is captured on the electrode surface of the multi-array microplate the detection antibody, conjugated with the sulfo-Tag™, is in close proximity of the surface, it generates a light via a series of reduction and oxidation reactions. The intensity of the emitted light is measured with the MSD imager to provide a quantitative measure for the analytes in the sample.
as §6

BACE2 [8] = target: T2, BACE2; test: BACE2 biochemical FRET based assay (Test Example 2-4); details: recombinant BACE2 0.4 μg/mL, 10 μM substrate, 450 minutes, pH 5.0
Text: as §1, with “assay” for “assay is an APP derived 13 amino acids peptide that”, “beta-secretase” for “beta-site secretase”, “the beta-secretase,” for “BACE1,”
Briefly in a 384-well format recombinant BACE2 protein in a final concentration of 0.4 μg/mL is incubated for 450 minutes at room temperature with 10 μM substrate in incubation buffer (final concentrations: 33.3 mM Citrate buffer pH 5.0, 0.033% PEG, 2% DMSO) in the absence or presence of compound. Next the amount of proteolysis is directly measured by fluorescence measurement at T=0 and T=450 (excitation at 320 nm and emission at 405 nm). Results are expressed in RFU (Relative Fluorescence Units), as difference between T450 and TO.
Data are analysed using Screener (Registered trademark) (Genedata, Switzerland). […]

| selectivity (BACE1 [1]) | IC50 (BACE1 [1]) | IC50 (BACE2 [2]) | Ki (BACE1 [3]) | BACE1 Biochemical FRET based assay - Method 1 PIC50 (BACE1 [4]) | Cellular αLisa assay in SKNBE2 cells Abeta 42 pIC50 (BACE1 [5]) | Ki (BACE2 [6]) | Cellular MSD assay in Min6 cells TV1EV127 pIC50 (BACE2 [7]) | BACE2 Biochemical FRET based assay pIC50 (BACE2 [8]) | SMILES |
| --- | --- | --- | --- | --- | --- | --- | --- | --- | --- |
| 17.4 | 3.2 nM | 55 nM |  |  |  |  |  |  | CN1C(N)=N[C@](C)(c2cc(NC(=O)c3ncc4c(c3Cl)OC(F)(F)O4)ccc2F)CS1(=O)=O |
|  |  |  | 0.14 nM | 8.75 | 8.54 | 63 nM | 6.52 | 6.5 | [2H]C1([2H])Oc2cnc(C(=O)Nc3ccc(F)c([C@]4(CF)CC[C@@](C)(S(=O)(=O)CC)C(N)=N4)c3)cc2OC1([2H])[2H] |
| 14.1 | 4.1 nM | 57.5 nM |  |  |  |  |  |  | Cc1c(C(=O)Nc2ccc(F)c([C@]3(C)CS(=O)(=O)N(C)C(N)=N3)c2)ncc2c1OC(F)(F)O2 |
